Measurements: paper PMC6424980, “Distinct G protein-coupled receptor phosphorylation motifs modulate arrestin affinity and activation and global conformation” (Nature Communications, 2019)

Chains of the proteins cited; added tags and fusions are not shown.
UniProt P08168, whole entry F85A/F197A: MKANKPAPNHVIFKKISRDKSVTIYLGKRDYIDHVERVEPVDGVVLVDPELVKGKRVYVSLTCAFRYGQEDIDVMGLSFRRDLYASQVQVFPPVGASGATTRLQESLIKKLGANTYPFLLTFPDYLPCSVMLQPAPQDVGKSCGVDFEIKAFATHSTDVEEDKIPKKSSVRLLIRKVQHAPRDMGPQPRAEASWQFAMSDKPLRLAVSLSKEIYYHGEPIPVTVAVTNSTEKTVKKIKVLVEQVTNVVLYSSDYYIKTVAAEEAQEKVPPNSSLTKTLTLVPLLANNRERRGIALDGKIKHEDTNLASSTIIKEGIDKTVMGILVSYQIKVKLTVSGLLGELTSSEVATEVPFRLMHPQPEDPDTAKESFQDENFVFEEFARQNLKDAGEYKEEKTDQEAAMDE

Columns and labels:
[1] = tested on: arrestin-1 mutants I72B and F197NBD with nonphosphorylated light-activated rhodopsin in ROS membranes; assay: Ternary complex formation (site-directed fluorescence and centrifugal pull-down); format: biochemical, bovine; conditions: 10 µM rhodopsin in ROS, 1 µM arrestin-1 I72B or F197NBD, 100 µM peptide, pH 7
Text: Recombinant bovine arrestin-1 cloned into the pET15b vector was expressed and purified as described. The basic construct was a modified wild-type sequence that contained no native cysteines (C63A, C128S and C143A) nor tryptophans (W194F). Single cysteine residues were introduced by PCR at sites 72 or 197 as previously described. The I72C mutant was labeled with monobromobimane (Thermo Fisher) and is referred to as I72B. The F197C mutant was labeled with N,N′-Dimethyl-N-(Iodoacetyl)-N′-(7-Nitrobenz-2-Oxa-1,3-Diazol-4-yl)Ethylenediamine (IANBD amide, Thermo Fisher) and is referred to as F197NBD. Labeling was carried out as previously described[43],[61]. Both labeled mutants were assessed to be functionally similar to wild-type arrestin-1 using the Extra Meta II assay, which determines the ability of arrestin-1 to bind and stabilize the active Meta II form of rhodopsin[64].
Under dim-red light, samples were prepared that contained nonphosphorylated rhodopsin (10 µM) in ROS membranes, 1 µM arrestin-1 I72B or F197NBD, ±100 µM peptide in 50 mM HEPES, 130 mM NaCl, pH 7 (150 or 200 µl sample volume). One hundred microliters of the sample was used for fluorescence measurements, and the remainder was used for the centrifugal pull-down assay (50 µl per assay). Steady-state fluorescence measurements were performed using a SPEX Fluorolog (1680) instrument in front-face mode. Bimane fluorescence was recorded using an excitation wavelength of 400 nm and emission 424–600 nm, and NBD fluorescence was recorded using an excitation wavelength of 500 nm and emission 524–660 (2 nm step size, 0.5 s integration per point). Excitation slits were narrowed to 0.1−0.2 nm to minimize light-activation of rhodopsin, and emission slits were set at 4 nm. Pull-down analysis was performed by centrifuging samples at 16,000 × g for 10 min at 20 °C. Selected samples were light activated (>495 nm) for 15 s prior to centrifugation (appr. 60 s delay time). Following centrifugation, the supernatants were removed, and the pellets were solubilized in loading buffer containing 2% SDS and subjected to SDS PAGE. Bands were visualized using Coomassie Brilliant Blue.

arrestin-3 [2] = assay: Fluorescence anisotropy binding of fluorescein-labelled peptides to arrestin-3; parameters: species or system human
Text: (§1) Synthesized cDNAs of bovine arrestin-1, human arrestin-2 and human arrestin-3 were ordered from Genewiz, amplified by PCR and cloned (Supplementary Information Table 5) into the pET-15b vector (Novagen), using the Gibson Assembly protocol. The constructs contained an N-terminal hexa histidine tag linked by a linker that contained a Tobacco Etch Virus cleavage site (TEV; […]). PCR was used to introduce the monomerizing arrestin-1 mutations (F85A, F197A)[58]. Note that this mutant was employed for fluorescence anisotropy, trypsin digestion, and NMR experiments. Wild-type arrestin-2 and -3 were used for fluorescence anisotropy and trypsin digestion experiments. […] The arrestin-1 in this construct had the wild-type sequence. Note that this construct differs slightly from that previously published[59],[60] and was optimized for purification. We verified the functionality of this fusion construct using the standard centrifugal pull-down assay using phosphorylated rhodopsin in native ROS membranes.
0.1–0.2 mg of lyophilized peptide was dissolved in 50 µl of 50 mM phosphate-buffered saline (PBS) buffer at pH 7.0, and then two molar equivalents of fluorescein-5-maleimide dye stock dissolved in dimethylsulfoxid was added. The reaction was carried out at RT in the dark. After 1 h the reaction was topped up with 1 ml of ice-cold 100% acetone and stored until the next day at −20 °C. The precipitated peptide was centrifuged (13,000 × g) for 10 min. The labeled and precipitated peptide was sedimented, and the supernatant was removed. […] It was dissolved in 50 µl of 20 mM Bis-Tris propane pH 7.0 and 150 mM NaCl and its concentration was determined by absorbance. […]
An 11-step serial dilution series of arrestin in 20 mM Bis-Tris propane pH 7.0, 150 mM NaCl, 8 mM 2‑mercaptoethanol, 2% (w/w) BSA, 0.02% (v/v) Tween-20 was prepared and transferred to a black high-bottom 384-well plate (Greiner). […] The reading was performed by default settings of PHERAstar plate-reader (BMG Labtech) and excitation‑/emission-wavelengths of 485 nm (12 nm bandpass)/520 nm (30 nm bandpass) were used. […]

arrestin-2 = assay: Limited trypsin digestion of arrestin-2 in presence of peptide; format: biochemical, human; conditions: arrestin:peptide 1:1.2, 35 °C, SDS PAGE
Text: as §1
Arrestin (60 µg) was mixed at a 1 to 1.2 molar ratio with peptide and preincubated at RT for 5 min before 1 μl of 0.15 mg/ml trypsin stock was added. The enzymatic digestion was carried out at 35 °C (20 mM Bis-Tris propane pH 7.0, 150 mM NaCl, 10 mM 2‑Mercaptoethanol and 2 mM EDTA). At certain time points (5, 15, 30, 60, 90 min), 5 μl aliquots were quenched with heat incubation in the presence of 20 μl SDS loading buffer (95 °C, 5 min) and then subjected to SDS PAGE. Bands were visualized with InstantBlue (Expedeon).

arrestin-1 (F85A, F197A) = assay: Limited trypsin digestion of arrestin-1 in presence of peptide; format: biochemical, bovine; conditions: arrestin:peptide 1:1.2, 35 °C, SDS PAGE
Text: as §1
(§2) Arrestin (60 µg) was mixed at a 1 to 1.2 molar ratio with peptide and preincubated at RT for 5 min before 1 μl of 0.15 mg/ml trypsin stock was added. The enzymatic digestion was carried out at 35 °C (20 mM Bis-Tris propane pH 7.0, 150 mM NaCl, 10 mM 2‑Mercaptoethanol and 2 mM EDTA). […]

[3] = target: T1, arrestin-1 (monomerizing mutant F85A, F197A) (Bos taurus, UniProt P08168, F197A/F85A); assay: Fluorescence anisotropy binding of fluorescein-labelled peptides to arrestin-1; parameters: species or system bovine; conditions: read-out: Kd for arrestin-1, 20 nM labelled peptide, pH 7.0, RT, one-to-one binding model, triplicate
T1 construct: made in house; host or cells: E. coli NiCo (DE3) cells (New England Biolabs), pET-15b vector
Text: as §1
0.1–0.2 mg of lyophilized peptide was dissolved in 50 µl of 50 mM phosphate-buffered saline (PBS) buffer at pH 7.0, and then two molar equivalents of fluorescein-5-maleimide dye stock dissolved in dimethylsulfoxid was added. The reaction was carried out at RT in the dark. […] It was dissolved in 50 µl of 20 mM Bis-Tris propane pH 7.0 and 150 mM NaCl and its concentration was determined by absorbance. […]

arrestin-3 [4] = assay: Limited trypsin digestion of arrestin-3 in presence of peptide; format: biochemical, human; conditions: arrestin:peptide 1:1.2, 35 °C, SDS PAGE
Text: as §1, §2

SMILES	ternary complex formation (arrestin-1, nonphosphorylated rhodopsin, peptide) [1]	binding to arrestin-3 (in words) (arrestin-3 [2])	rate of trypsin digestion of arrestin-2 (arrestin-2)	limited trypsin digest pattern of arrestin-1 (conformational change, C-tail displacement) (arrestin-1 (F85A, F197A))	pKd [3]	limited trypsin digest pattern of arrestin-3 (arrestin-3 [4])
CC(C)[C@H](NC(=O)[C@H](CCC(N)=O)NC(=O)[C@H](COP(=O)(O)O)NC(=O)[C@@H](NC(=O)[C@H](CCC(=O)O)NC(=O)[C@@H](NC(=O)[C@H](CCCCN)NC(=O)[C@H](CO)NC(=O)[C@@H](NC(=O)[C@@H](NC(=O)[C@@H](NC(=O)[C@H](CO)NC(=O)[C@H](C)NC(=O)[C@H](CCC(=O)O)NC(=O)[C@H](CC(=O)O)NC(=O)[C@H](CC(=O)O)NC(=O)[C@@H](N)CS)[C@@H](C)OP(=O)(O)O)[C@@H](C)O)C(C)C)[C@@H](C)OP(=O)(O)O)[C@@H](C)O)C(=O)N[C@@H](C)C(=O)N1CCC[C@H]1C(=O)N[C@@H](C)C(=O)O [3Pb]	Efficient ternary complex formation; also recorded: robust ternary complex formation					
CC(C)[C@H](NC(=O)[C@H](CCC(N)=O)NC(=O)[C@H](COP(=O)(O)O)NC(=O)[C@@H](NC(=O)[C@H](CCC(=O)O)NC(=O)[C@@H](NC(=O)[C@H](CCCCN)NC(=O)[C@H](COP(=O)(O)O)NC(=O)[C@@H](NC(=O)[C@@H](NC(=O)[C@@H](NC(=O)[C@H](CO)NC(=O)[C@H](C)NC(=O)[C@H](CCC(=O)O)NC(=O)[C@H](CC(=O)O)NC(=O)[C@H](CC(=O)O)NC(=O)[C@@H](N)CS)[C@@H](C)OP(=O)(O)O)[C@@H](C)OP(=O)(O)O)C(C)C)[C@@H](C)OP(=O)(O)O)[C@@H](C)OP(=O)(O)O)C(=O)N[C@@H](C)C(=O)N1CCC[C@H]1C(=O)N[C@@H](C)C(=O)O [6P]	Efficient ternary complex formation	higher affinity	accelerated			
CC(C)[C@H](NC(=O)[C@H](CCC(N)=O)NC(=O)[C@H](COP(=O)(O)O)NC(=O)[C@@H](NC(=O)[C@H](CCC(=O)O)NC(=O)[C@@H](NC(=O)[C@H](CCCCN)NC(=O)[C@H](COP(=O)(O)O)NC(=O)[C@@H](NC(=O)[C@@H](NC(=O)[C@@H](NC(=O)[C@H](COP(=O)(O)O)NC(=O)[C@H](C)NC(=O)[C@H](CCC(=O)O)NC(=O)[C@H](CC(=O)O)NC(=O)[C@H](CC(=O)O)NC(=O)[C@@H](N)CS)[C@@H](C)OP(=O)(O)O)[C@@H](C)OP(=O)(O)O)C(C)C)[C@@H](C)OP(=O)(O)O)[C@@H](C)OP(=O)(O)O)C(=O)N[C@@H](C)C(=O)N1CCC[C@H]1C(=O)N[C@@H](C)C(=O)O [7P]	Efficient ternary complex formation	higher affinity	accelerated	two major bands	> 3.60	change of the digestion pattern from three to two bands
CC(C)[C@H](NC(=O)[C@H](CCC(N)=O)NC(=O)[C@H](COP(=O)(O)O)NC(=O)[C@@H](NC(=O)[C@H](CCC(=O)O)NC(=O)[C@@H](NC(=O)[C@H](CCCCN)NC(=O)[C@H](CO)NC(=O)[C@@H](NC(=O)[C@@H](NC(=O)[C@@H](NC(=O)[C@H](CO)NC(=O)[C@H](C)NC(=O)[C@H](CCC(=O)O)NC(=O)[C@H](CC(=O)O)NC(=O)[C@H](CC(=O)O)NC(=O)[C@@H](N)CS)[C@@H](C)O)[C@@H](C)OP(=O)(O)O)C(C)C)[C@@H](C)OP(=O)(O)O)[C@@H](C)O)C(=O)N[C@@H](C)C(=O)N1CCC[C@H]1C(=O)N[C@@H](C)C(=O)O [3Pd]	Efficient ternary complex formation; also recorded: robust ternary complex formation					
CC(C)[C@H](NC(=O)[C@H](CCC(N)=O)NC(=O)[C@H](COP(=O)(O)O)NC(=O)[C@@H](NC(=O)[C@H](CCC(=O)O)NC(=O)[C@@H](NC(=O)[C@H](CCCCN)NC(=O)[C@H](CO)NC(=O)[C@@H](NC(=O)[C@@H](NC(=O)[C@@H](NC(=O)[C@H](COP(=O)(O)O)NC(=O)[C@H](C)NC(=O)[C@H](CCC(=O)O)NC(=O)[C@H](CC(=O)O)NC(=O)[C@H](CC(=O)O)NC(=O)[C@@H](N)CS)[C@@H](C)O)[C@@H](C)O)C(C)C)[C@@H](C)OP(=O)(O)O)[C@@H](C)O)C(=O)N[C@@H](C)C(=O)N1CCC[C@H]1C(=O)N[C@@H](C)C(=O)O [3Pa]	Efficient ternary complex formation; also recorded: robust ternary complex formation					
CC(C)[C@H](NC(=O)[C@H](CCC(N)=O)NC(=O)[C@H](COP(=O)(O)O)NC(=O)[C@@H](NC(=O)[C@H](CCC(=O)O)NC(=O)[C@@H](NC(=O)[C@H](CCCCN)NC(=O)[C@H](COP(=O)(O)O)NC(=O)[C@@H](NC(=O)[C@@H](NC(=O)[C@@H](NC(=O)[C@H](CO)NC(=O)[C@H](C)NC(=O)[C@H](CCC(=O)O)NC(=O)[C@H](CC(=O)O)NC(=O)[C@H](CC(=O)O)NC(=O)[C@@H](N)CS)[C@@H](C)O)[C@@H](C)O)C(C)C)[C@@H](C)OP(=O)(O)O)[C@@H](C)O)C(=O)N[C@@H](C)C(=O)N1CCC[C@H]1C(=O)N[C@@H](C)C(=O)O [3Pc]	Efficient ternary complex formation; also recorded: robust ternary complex formation					
CC(C)[C@H](NC(=O)[C@H](CCC(N)=O)NC(=O)[C@H](COP(=O)(O)O)NC(=O)[C@@H](NC(=O)[C@H](CCC(=O)O)NC(=O)[C@@H](NC(=O)[C@H](CCCCN)NC(=O)[C@H](CO)NC(=O)[C@@H](NC(=O)[C@@H](NC(=O)[C@@H](NC(=O)[C@H](COP(=O)(O)O)NC(=O)[C@H](C)NC(=O)[C@H](CCC(=O)O)NC(=O)[C@H](CC(=O)O)NC(=O)[C@H](CC(=O)O)NC(=O)[C@@H](N)CS)[C@@H](C)O)[C@@H](C)OP(=O)(O)O)C(C)C)[C@@H](C)OP(=O)(O)O)[C@@H](C)O)C(=O)N[C@@H](C)C(=O)N1CCC[C@H]1C(=O)N[C@@H](C)C(=O)O [4P]	Efficient ternary complex formation	higher affinity	accelerated			

pKd: −log10 of the molar value. “Also recorded” adds a separate entry of the source.
